Key:
[1] = target: T1, KOR (Cavia porcellus, UniProt P41144); test: Radioligand competition binding with [3H]HS665; design: species or system guinea pig
T1 construct: b: performed in guinea pig whole brain membrane homogenates; from tissue; host or cells: guinea pig (LAL/HA/BR strain) whole brain membrane homogenate
Method: (§1) Tris-HCl, EGTA, NaCl, MgCl2 x 6H2O, GDP, the GTP analogue GTPγS, were purchased from Sigma-Aldrich (Budapest, Hungary). Fatty acid free bovine serum albumin (BSA) was purchased from Serva (Heidelberg, Germany). Naloxone was kindly provided by the company Endo Laboratories DuPont de Nemours (Wilmington, DE, USA). HS665 was provided by Schmidhammer’s group (University of Innsbruck, Austria). […]
(§2) purchased from Tocris Bioscience (Bristol, UK).
(§3) DMSO. All compounds were stored in 1 mM stock solution at -20 °C. The radiolabelled GTP analogue, [35S]GTPγS (specific activity: 1000 Ci/mmol) were purchased from Hartmann Analytic (Braunschweig, Germany). [3H]DAMGO (specific activity: 38.8 Ci/mmol),12 [3H]IleDelt II (specific activity: 19,6 Ci/mmol), [3H]WIN55,212-2 (specific activity: 13,1 Ci/mmol) and [3H]HS665 (specific activity: 36.62 Ci/mmol),3 were radiolabeled by the Laboratory of Chemical Biology group in BRC (Szeged, Hungary).
(§4) For membrane homogenate preparations male and female Wistar rats (250-300 g body weight) and male guinea pigs (~700 g body weight, LAL/HA/BR strain) were used. Rats were housed in the local animal house of BRC (Szeged, Hungary), while guinea pigs were housed in LAB-ÁLL Bt.
(§5) (Budapest, Hungary). […]
(§6) binding was determined in the absence of unlabeled compounds. […]

[2] = target: T2, MOR (Rattus norvegicus, UniProt P33535); test: Radioligand competition binding with [3H]DAMGO
T2 construct: a: performed in rat whole brain membrane homogenates; from tissue; host or cells: Wistar rat whole brain membrane homogenate
Method: as §1, §2, §3, §4, §5, §6

C[C@@H](NC(=O)[C@@H](N)Cc1ccc(O)cc1)C(=O)NCC(=O)N[C@@H](Cc1ccccc1)C(N)=O [Compound 10, Tyr-D-Ala-Gly-Phe-NH2, reference compound]
Ki [1]: 369 nM
Selectivity ratio DOR/KOR [1]: 0.28
Selectivity ratio DOR/MOR [2]: 106.8
Selectivity ratio KOR/MOR [2]: 368.6
